Laboratory results as given in article PMC8165550, “Molecular basis for diaryldiamine selectivity and competition with tRNA in a type 2 methionyl-tRNA synthetase from a Gram-negative bacterium” (The Journal of Biological Chemistry, 2021).

Experiments:
XcMetRS Y237L mutant [1] = biological target: T1, XcMetRS Y237L mutant (Xanthomonas citri pv. citri, UniProt Q8PMP0, Y237L); type: biochemical; set-up: His tag with TEV site (from pET28-TEV vector) (N); made in house; host or cells: E. coli BL21(DE3)
XcMetRS P257L mutant [2] = biological target: T2, XcMetRS P257L mutant (Xanthomonas citri pv. citri, UniProt Q8PMP0, P257L); type: biochemical; set-up: His tag with TEV site (from pET28-TEV vector) (N); made in house; host or cells: E. coli BL21(DE3)
XcMetRS P257L mutant [3] = biological target: T2, XcMetRS P257L mutant; type: binding; set-up: His tag with TEV site (from pET28-TEV vector) (N); made in house; host or cells: E. coli BL21(DE3)
[4] = biological target: T3, XcMetRS Y237L/P257L mutant (Xanthomonas citri pv. citri, UniProt Q8PMP0, P257L/Y237L); type: binding; set-up: His tag with TEV site (from pET28-TEV vector) (N); made in house; host or cells: E. coli BL21(DE3)
XcMetRS Y237L mutant [5] = biological target: T1, XcMetRS Y237L mutant; type: binding; set-up: His tag with TEV site (from pET28-TEV vector) (N); made in house; host or cells: E. coli BL21(DE3); settings: for Tm: Y237L; for Tm increase: Y237L mutant, ligand alone
[6] = biological target: T3, XcMetRS Y237L/P257L mutant; type: biochemical; set-up: His tag with TEV site (from pET28-TEV vector) (N); made in house; host or cells: E. coli BL21(DE3)
XcMetRS Y237L mutant [7] = biological target: T1, XcMetRS Y237L mutant
XcMetRS P257L mutant [8] = biological target: T2, XcMetRS P257L mutant
[9] = biological target: T3, XcMetRS Y237L/P257L mutant
[10] = read-out: KM^app, L-Met varied, ATP 2 mM

Compound | Tm (XcMetRS P257L mutant [3]; ligand 5 mM) | Tm ([4]; ligand 5 mM) | Tm (XcMetRS Y237L mutant [5]; ligand 5 mM) | Tm (XcMetRS P257L mutant [3]; ligand 25 µM) | Tm (XcMetRS P257L mutant [3]; ligand + ATP:Mg) | Tm ([4]; ligand 25 µM) | Tm ([4]; ligand + ATP:Mg) | Tm increase (XcMetRS Y237L mutant [5]) | Tm (XcMetRS Y237L mutant [5]; ligand 25 µM) | Tm (XcMetRS Y237L mutant [5]; ligand + ATP:Mg) | other results
Nc1ncnc2c1ncn2[C@@H]1O[C@H](COP(=O)(O)OP(=O)(O)OP(=O)(O)O)[C@@H](O)[C@H]1O [ATP] | 58,7 ± 0,3 ^oC | 39,3 ± 0,3 ^oC | 32,3 ± 0,2 ^oC | – | – | – | – | – | – | – | kcat (XcMetRS Y237L mutant [1]; ATP as varied substrate): 0.0035 ± 0.00017 s⁻¹; K’ (XcMetRS Y237L mutant [1]; ATP varied, L-Met 200 μM): 1.16 ± 0.26 mM; kcat (XcMetRS P257L mutant [2]; ATP as varied substrate): 0.0663 ± 0.00367 s⁻¹; h (Hill slope) (XcMetRS P257L mutant [2]; ATP varied): 1.6; K’ (XcMetRS P257L mutant [2]; ATP varied, L-Met 200 μM): 2.43 ± 0.30 mM; kcat ([6]; ATP as varied substrate): 0.0338 ± 0.0013 s⁻¹; K’ ([6]; ATP varied, L-Met 200 μM): 1.81 ± 0.29 mM
O=c1cc(NCCCN[C@@H]2CCOc3c(Br)cc(Br)cc32)[nH]c2ccsc12 [REP3123] | – | – | – | 55,9 ± 0,1 ^oC | 59 ± 0,1 ^oC | 35,4 ± 0,5 ^oC | 47,4 ± 0,1 ^oC | approximately 14 °C | 44,3 ± 1,6 ^oC | 47,3 ± 0,9 ^oC | –
CSCC[C@H](N)C(=O)O [L-Met, L-methionine] | 64,3 ± 0,1 ^oC | 47,4 ± 0,1 ^oC | 34,1 ± 0,7 ^oC | – | – | – | – | – | – | – | kcat (XcMetRS Y237L mutant [1]; L-Met as varied substrate): 0.0012 ± 0.00017 s⁻¹; Km (XcMetRS Y237L mutant [1]; [10]): 23.5 ± 0.9 µM; kcat (XcMetRS P257L mutant [2]; L-Met as varied substrate): 0.0302 ± 0.0005 s⁻¹; Km (XcMetRS P257L mutant [2]; [10]): 21.8 ± 1.3 µM; kcat ([6]; L-Met as varied substrate): 0.0582 ± 0.001 s⁻¹; Km [6, 10]: 39 ± 2 µM
C=C(F)c1sc(CNCCCNc2cc(O)c3ccccc3n2)c(C)c1Br [REP8839] | – | – | – | 55,1 ± 0,1 ^oC | 58,3 ± 0,2 ^oC | 39,3 ± 0,3 ^oC | 42,6 ± 0,4 ^oC | ~26 °C | 56,1 ± 0,1 ^oC | 57,3 ± 0,5 ^oC | IC50 (XcMetRS Y237L mutant [7]): 1.9 ± 0.2 µM; IC50 fold lower than WT enzyme (XcMetRS Y237L mutant [7]; Y237L mutant vs WT): approximately 10 fold; IC50 (XcMetRS P257L mutant [8]): > 100 µM; IC50 (XcMetRS P257L mutant [8]; P257L mutant, 30 μM L-Met, 5 mM ATP): insensitive; IC50 [9]: 32.8 ± 2.7 µM; IC50 fold higher than parental enzyme ([9]; Y237L/P257L mutant vs WT): ~2 fold

Where two headings read alike, the source gives them in different places.
